Assay results published in article PMC5995905, “Confirmation of high-throughput screening data and novel mechanistic insights into VDR-xenobiotic interactions by orthogonal assays” (Scientific Reports, 2018).

Molecular target: T1, human VDR (Homo sapiens, UniProt P11473)
T1 sequence (P11473 1-427): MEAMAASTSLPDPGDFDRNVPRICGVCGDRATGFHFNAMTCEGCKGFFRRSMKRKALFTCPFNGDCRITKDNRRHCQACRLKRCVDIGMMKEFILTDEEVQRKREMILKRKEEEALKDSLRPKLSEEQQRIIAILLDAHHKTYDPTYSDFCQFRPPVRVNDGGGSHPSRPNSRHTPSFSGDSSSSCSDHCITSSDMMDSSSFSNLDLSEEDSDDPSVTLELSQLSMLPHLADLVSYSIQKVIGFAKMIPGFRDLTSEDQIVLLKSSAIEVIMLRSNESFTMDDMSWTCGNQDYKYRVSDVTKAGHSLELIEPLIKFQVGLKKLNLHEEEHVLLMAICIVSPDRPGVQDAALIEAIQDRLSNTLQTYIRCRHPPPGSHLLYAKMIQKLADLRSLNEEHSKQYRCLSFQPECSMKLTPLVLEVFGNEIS
Test: Transient transactivation assay (CYP24-Luc), agonist mode, HEK293T cells
Conditions: top asymptote of Hill or Gain-Loss model, maximum response

- Derived Efficacy (fold induction): 82.6111 fold induction
Structure (SMILES): C=C1CC[C@H](O)C/C1=C/C=C1\CCC[C@]2(C)[C@@H]([C@H](C)/C=C/[C@H](C)C(C)C)CC[C@@H]12 [Ergocalciferol, reference compound]
